Assay [1] has as its target T1, DPP-IV activity of Caco-2 cells (Homo sapiens, UniProt P27487).
T1 construct: endogenous in cells; host or cells: Caco-2
The experiment in a line: In situ cell-based DPP-IV inhibition (Gly-Pro-AMC). To be noted: 1 h at 37 °C, Gly-Pro-AMC 50 µM, mean ± SD (n = 3), read-out: In situ DPP-IV inhibitory activity IC50. Here is the method: The Caco-2 cells (Cell Bank of Shanghai Academy of Biological Science, Shanghai, China) were incubated at 37 °C in a 5% CO2 environment in DMEM supplemented with 10% FBS and 1% penicillin–streptomycin liquid. Unless otherwise stated below, the cells were cultivated at a density of 5 × 10^4 cells/mL in the culture dishes (Corning Inc., Corning, NY, USA). The cell culture medium was changed every two days, and the cells from passage numbers of 15–25 were used in this study.
Briefly, 2 × 10^4 Caco-2 cells/well cells were seeded in 96-well microplates and cultivated for 24 h. […] Subsequently, 100 µL of the fluorescent substrate Gly-Pro-AMC (50 µM) was added to each well and incubated for 5 min. IPI was used as a positive control. Then, the florescence was monitored with excitation and emission wavelengths of 380 nm and 500 nm (Molecular Devices SpectraMax M5, San Jose, CA, USA).

The chains behind the UniProt entries cited, without tags or fusion partners.
UniProt P27487, whole entry: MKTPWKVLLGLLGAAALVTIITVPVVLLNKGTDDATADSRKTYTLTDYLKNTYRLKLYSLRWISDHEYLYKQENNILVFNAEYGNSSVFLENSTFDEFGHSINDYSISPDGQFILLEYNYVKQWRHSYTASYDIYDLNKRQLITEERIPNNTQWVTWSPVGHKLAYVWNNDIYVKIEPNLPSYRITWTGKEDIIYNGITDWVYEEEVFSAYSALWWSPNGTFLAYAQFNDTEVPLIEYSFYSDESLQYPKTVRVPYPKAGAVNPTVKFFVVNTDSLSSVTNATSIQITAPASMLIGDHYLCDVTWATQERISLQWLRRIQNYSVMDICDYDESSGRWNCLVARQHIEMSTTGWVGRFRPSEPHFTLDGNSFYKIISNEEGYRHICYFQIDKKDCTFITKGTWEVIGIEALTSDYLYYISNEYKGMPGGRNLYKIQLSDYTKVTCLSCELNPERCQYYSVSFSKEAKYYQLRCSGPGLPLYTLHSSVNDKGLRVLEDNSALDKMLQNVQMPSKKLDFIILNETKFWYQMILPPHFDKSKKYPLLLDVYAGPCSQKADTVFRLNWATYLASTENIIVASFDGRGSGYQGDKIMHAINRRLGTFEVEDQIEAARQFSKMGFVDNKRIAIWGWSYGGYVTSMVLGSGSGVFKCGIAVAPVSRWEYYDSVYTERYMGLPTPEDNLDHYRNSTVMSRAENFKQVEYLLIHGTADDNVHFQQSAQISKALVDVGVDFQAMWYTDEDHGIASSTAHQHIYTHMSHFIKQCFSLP

The next assay concerns the target T2, DPP-IV (Homo sapiens, UniProt P27487).
T2 construct: purchased Sigma-Aldrich
In words: DPP-IV inhibitory assay (in vitro chemical system, Gly-Pro-pNA). In kind it is biochemical. As for the experimental part: The DPP-IV inhibitory activity of peptides was performed as previously reported with slight modifications. Briefly, peptides were diluted using 100 mM Tris-HCL buffer (pH = 8). Then, 25 μL diluted peptides were mixed with 25 μL of 1.6 mM Gly-Pro-pNA in a 96-well microplate and incubated at 37 °C for 10 min. […] The DPP-IV-inhibition (DI) was calculated with the following equation: DI%=1−AS−ASC/ANR−ANC×100% where AS (sample) is the optical density in the presence of peptide, DPP-IV, and Gly-Pro-pNA; ASC (sample control) is the optical density when DPP-IV is replaced with Tris-HCl buffer (100 mM, pH 8.0); ANR (negative reaction) is the optical density in the presence of only DPP-IV solution and Gly-Pro-pNA; and ANC (negative control) is the optical density in the absence of DPP-IV and peptide.

As a reminder, the IC50 is the point on the concentration scale where inhibition reaches its midpoint.

As to `N[C@@H](Cc1ccc(O)cc1)C(=O)N1CCC[C@H]1C(=O)N[C@@H](Cc1ccccc1)C(=O)O` [Peptide P4, YPF], the IC50 in assay [1] turned out to be 159 ± 17.4 µM; against DPP-IV it was 369 ± 13 µM.

Values taken from PMC11049645, “Mechanistic Study of Novel Dipeptidyl Peptidase IV Inhibitory Peptides from Goat’s Milk Based on Peptidomics and In Silico Analysis” (Foods, 2024).
